The assay concerns the target T1, human CD25 (Interleukin-2 receptor alpha chain) (human, UniProt P01589 22-272).
T1 sequence (looked up): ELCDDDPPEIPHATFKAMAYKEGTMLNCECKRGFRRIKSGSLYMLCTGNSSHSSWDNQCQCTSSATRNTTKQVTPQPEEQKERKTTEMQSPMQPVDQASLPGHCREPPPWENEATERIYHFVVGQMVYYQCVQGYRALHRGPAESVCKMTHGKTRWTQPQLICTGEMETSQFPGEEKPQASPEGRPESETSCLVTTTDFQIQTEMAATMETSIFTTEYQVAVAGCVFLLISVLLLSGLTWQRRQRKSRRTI
The assay is described as follows: cell-based or functional assay.

B1: Basiliximab (antibody, V domains shown)
VH: QVQLQQSGTVLARPGASVKMSCKASGYSFTRYWMHWIKQRPGQGLEWIGAIYPGNSDTSYNQKFEGKAKLTAVTSASTAYMELSSLTHEDSAVYYCSRDYGYYFDFWGQGTTLTVSS
VL: QIVSTQSPAIMSASPGEKVTMTCSASSSRSYMQWYQQKPGTSPKRWIYDTSKLASGVPARFSGSGSGTSYSLTISSMEAEDAATYYCHQRSSYTFGGGTKLEIK
In the case of B1, the “IL-2 induced T-cell proliferation, Mean (control = 100)” value turned out to be 10.

The values above are taken from patent US20220251232A1 (INSERM INSTITUT NATIONAL DE LA SANT ET DE LA RECHERCHE M …, published 2022).
